The record followed here is ChEMBL document CHEMBL1126898 (J Med Chem, 1993).

Amino acid sequences for entries named in this document (tags omitted).
UniProt P23977, whole entry: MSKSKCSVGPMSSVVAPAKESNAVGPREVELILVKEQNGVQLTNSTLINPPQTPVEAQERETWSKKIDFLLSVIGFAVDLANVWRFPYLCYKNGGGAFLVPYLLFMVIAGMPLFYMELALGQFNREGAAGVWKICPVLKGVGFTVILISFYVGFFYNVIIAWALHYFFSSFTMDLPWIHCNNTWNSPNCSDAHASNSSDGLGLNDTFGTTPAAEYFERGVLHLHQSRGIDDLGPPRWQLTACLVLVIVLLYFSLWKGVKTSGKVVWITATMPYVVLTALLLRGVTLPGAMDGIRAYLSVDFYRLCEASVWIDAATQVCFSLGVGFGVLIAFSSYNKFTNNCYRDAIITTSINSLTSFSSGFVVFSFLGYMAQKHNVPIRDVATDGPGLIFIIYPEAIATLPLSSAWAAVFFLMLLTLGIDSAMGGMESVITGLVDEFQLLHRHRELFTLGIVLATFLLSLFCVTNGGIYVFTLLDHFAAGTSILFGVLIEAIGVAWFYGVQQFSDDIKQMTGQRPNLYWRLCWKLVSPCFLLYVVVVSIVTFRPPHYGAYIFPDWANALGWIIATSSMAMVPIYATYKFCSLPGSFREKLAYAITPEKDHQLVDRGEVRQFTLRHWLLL

Molecules are shown by their SMILES.

The test has as its target Sodium-dependent dopamine transporter (Rattus norvegicus, UniProt P23977). The test can be described thus: Inhibition of [3H]WIN-35428 binding to dopamine transporter in rat striatal membranes. It is filed as cell membranes, Membrane.

By IC50 is commonly meant the point on the concentration scale where inhibition reaches its midpoint. Regarding `COC(=O)C1C2CCC(C[C@H]1c1ccc(OC)cc1)N2C` (stereo partly specified), the IC50 amounted to 8 nM.
